Experimental data published in PMC3468530 (PLoS ONE, 2012).

How the values were obtained:
SisLac [1] = molecular target: T1, SisLac (Saccharolobus islandicus, UniProt C4KKZ9)
T1 construct: gene M164_0332

SisLac [2] = molecular target: T1, SisLac; remark: listed apart in the source
CCCCCCCC(=O)NC1CCOC1=O = test: purified protein; conditions: pH 8.3; 25.0 °C
CCCCCCC1CCCC(=O)O1 = test: purified protein; conditions: pH 8.3; 25.0 °C
O=C1CCCCCO1 = test: purified protein; conditions: pH 8.3; 25.0 °C
CCCCCC1CCC(=O)O1 = test: purified protein; conditions: pH 8.3; 25.0 °C
[3] = system: CC(=O)Oc1ccc([N+](=O)[O-])cc1; test: purified protein; conditions: pH 8.0; 25.0 °C
CCCCCCCCC1CCC(=O)O1 = test: purified protein; conditions: pH 8.3; 25.0 °C
[4] = system: CCCCCC(=O)CC(=O)NC1CCOC1=O; test: purified protein; conditions: pH 8.3; 25.0 °C
CCCCCCCC1CCC(=O)O1 = test: purified protein; conditions: pH 8.3; 25.0 °C
[5] = system: CCCCCCCCCC(=O)CC(=O)N[C@H]1CCOC1=O; test: purified protein; conditions: pH 8.3; 25.0 °C
CCCCCCCC1CCCC(=O)O1 = test: purified protein; conditions: pH 8.3; 25.0 °C
CCCCC1CCCC(=O)O1 = test: purified protein; conditions: pH 8.3; 25.0 °C
[6] = system: CCCCCCCC(=O)CC(=O)N[C@H]1CCOC1=O; test: purified protein; conditions: pH 8.3; 25.0 °C
O=C1CCc2ccccc2O1 = test: purified protein; conditions: pH 8.3; 25.0 °C
O=C1CCCO1 = test: purified protein; conditions: pH 8.3; 25.0 °C
CCCC1CCC(=O)O1 = test: purified protein; conditions: pH 8.3; 25.0 °C

## CCOC(=O)CC(SP(=S)(OC)OC)C(=O)OCC (racemic) [V, Malathion]
SisLac [1]
  Km: 330 ± 54 µM

## CCOP(=O)(OCC)Oc1ccc([N+](=O)[O-])cc1 [I, Ethyl-Paraoxon]
SisLac [2]
  Km: 5440 ± 873 µM

## COP(=O)(OC)Oc1ccc([N+](=O)[O-])cc1 [II, Methyl-Paraoxon]
SisLac [2]
  Km: 1740 ± 417 µM

## COP(=S)(OC)Oc1ccc([N+](=O)[O-])cc1 [IV, Methyl-Parathion]
SisLac [2]
  Km: 272 ± 17 µM

## SisLac (Saccharolobus islandicus M.16.4)
CCCCCCCC(=O)NC1CCOC1=O
  Km: 677 ± 163 µM
  kcat/Km: 1050 M⁻¹ s⁻¹
CCCCCCC1CCCC(=O)O1
  kcat/Km: > 1.77e+06 M⁻¹ s⁻¹
O=C1CCCCCO1
  Km: 367 ± 54 µM
  kcat/Km: 19800 M⁻¹ s⁻¹
CCCCCC1CCC(=O)O1
  Km: 15 ± 8 µM
  kcat/Km: 204000 M⁻¹ s⁻¹
[3]
  Km: 124 ± 36 µM
  kcat/Km: 1600 M⁻¹ s⁻¹
CCCCCCCCC1CCC(=O)O1
  Km: 475 ± 83 µM
  kcat/Km: 3140 M⁻¹ s⁻¹
[4]
  Km: 42 ± 7 µM
  kcat/Km: 97000 M⁻¹ s⁻¹
CCCCCCCC1CCC(=O)O1
  Km: 391 ± 90 µM
  kcat/Km: 5490 M⁻¹ s⁻¹
[5]
  Km: 435 ± 123 µM
  kcat/Km: 897 M⁻¹ s⁻¹
CCCCCCCC1CCCC(=O)O1
  Km: 124 ± 36 µM
  kcat/Km: 89500 M⁻¹ s⁻¹
CCCCC1CCCC(=O)O1
  Km: 62 ± 22 µM
  kcat/Km: 828000 M⁻¹ s⁻¹
[6]
  Km: 111 ± 18 µM
  kcat/Km: 96300 M⁻¹ s⁻¹
O=C1CCc2ccccc2O1
  Km: 1122 ± 75 µM
O=C1CCCO1
  Km: 158 ± 38 µM
  kcat/Km: 36400 M⁻¹ s⁻¹
CCCC1CCC(=O)O1
  Km: 128 ± 10 µM
  kcat/Km: 46100 M⁻¹ s⁻¹

Like-named read-outs stand apart in the source and are kept apart here.
